From BindingDB's records for doi:10.1002/1098-2396(20010101)39:1 (Nih, 2001)

Protein sequences, listed by entry. Tags and fused reporters are not part of them.
UniProt P23977, whole entry: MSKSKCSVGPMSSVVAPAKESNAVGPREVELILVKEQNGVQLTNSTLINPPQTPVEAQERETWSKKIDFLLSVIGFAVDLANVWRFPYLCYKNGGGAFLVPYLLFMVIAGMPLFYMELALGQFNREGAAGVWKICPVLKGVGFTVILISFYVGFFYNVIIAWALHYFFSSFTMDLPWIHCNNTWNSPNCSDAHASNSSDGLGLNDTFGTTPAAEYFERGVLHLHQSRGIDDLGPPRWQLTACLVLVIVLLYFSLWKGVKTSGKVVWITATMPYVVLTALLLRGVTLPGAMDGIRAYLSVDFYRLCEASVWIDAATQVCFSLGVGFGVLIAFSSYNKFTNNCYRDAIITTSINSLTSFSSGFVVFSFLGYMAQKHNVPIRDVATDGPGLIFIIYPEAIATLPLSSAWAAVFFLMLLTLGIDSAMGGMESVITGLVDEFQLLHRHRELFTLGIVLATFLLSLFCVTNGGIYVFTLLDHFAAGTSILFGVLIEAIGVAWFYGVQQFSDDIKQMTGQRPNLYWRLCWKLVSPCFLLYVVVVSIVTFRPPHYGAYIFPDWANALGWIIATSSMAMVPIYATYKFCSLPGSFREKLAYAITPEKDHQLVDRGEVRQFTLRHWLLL

Biological target: Sodium-dependent dopamine transporter (Rattus norvegicus, UniProt P23977)

## CNC1CC(c2ccc(Cl)c(Cl)c2)c2ccccc21 (stereo unspecified)
  Ki: 1.9 nM
